Measurements from US6384075B1, “Bicyclic amino derivatives and PGD2, antagonist containing them” (Shionogi & Co., Ltd., priority 1995, dated 2002).

Sequences of proteins named here, by UniProt entry; tags and fusion partners are left off.
UniProt Q13258, whole entry: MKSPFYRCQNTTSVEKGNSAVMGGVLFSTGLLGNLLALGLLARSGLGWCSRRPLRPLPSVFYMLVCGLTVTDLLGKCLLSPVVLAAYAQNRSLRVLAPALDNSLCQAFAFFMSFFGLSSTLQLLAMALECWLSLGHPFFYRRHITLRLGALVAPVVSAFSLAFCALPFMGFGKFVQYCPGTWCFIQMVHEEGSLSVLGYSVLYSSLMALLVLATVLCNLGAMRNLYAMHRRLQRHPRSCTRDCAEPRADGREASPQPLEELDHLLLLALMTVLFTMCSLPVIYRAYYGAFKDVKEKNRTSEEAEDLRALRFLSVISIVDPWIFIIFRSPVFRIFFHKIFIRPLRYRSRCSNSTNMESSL

Columns and labels:
PGD2 receptor [1] = biological target: T1, PGD2 receptor (Homo sapiens, UniProt Q13258); assay: Antagonistic activity against PGD2 receptor using human platelet (inhibition of PGD2-induced cAMP increase); conditions: read-out: Inhibition of Increase of Human Platelet cAMP (IC50); washed human platelets, 0.1-2.0 μM PGD2, IBMX pre-treatment
Protocol: Evaluation of Antagonistic Activity Against PGD2 Receptor Using Human Platelet
Peripheral blood was obtained from a healthy volunteer using a syringe in which 1/9 volume of citric acid/dextrose solution has been previously added. The syringe was subjected to centrifugation at 180 g for 10 min to obtain the supernatant (PRP: platelet rich plasma). The resultant RRP was washed 3 times with a washing buffer and the number of platelet was counted with a micro cell counter. A suspension adjusted to contain platelet at a final concentration of 5×10^8/ml was warmed at 37° C., and then subjected to the pre-treatment with 3-isobutyl-1-methylxanthine (0.5 mM) for 5 min. To the suspension was added a test compound diluted at various concentration. Ten-minute later, the reaction was induced by the addition of 0.1-2.0 μM PGD2 and, 15-minute later, stopped by the addition of HCl. The platelet was destroyed with an ultrasonic homogenizer. After centrifugation, the cAMP in the supernatant was determined by radioassay. PGD2 receptor antagonism of a drug was evaluated as follows. The inhibition rate regarding cAMP increased by the addition of PGD2 was determined at individual concentration, and then the concentration of the drug required for 50% inhibition (IC50) was calculated.

[2] = system: nasal cavity resistance (nasal occlusion model); assay: Nasal occlusion model: nasal cavity resistance after antigen (OVA) exposure in sensitized guinea pig; conditions: 1 mg/kg (i.v.), 10 min before antigen exposure
Protocol: Experiment Using Nasal Occlusion Model
The method used for measuring the nasal cavity resistance and evaluating the anti-nasal occlusion using a guinea pig are described below.
A 1% ovalbumin (OVA) solution was treated with ultrasonic nebulizer to obtain an aerosol. Hartley male guinea pig was sensitized by inhaling twice the aerosol for 10 min at one-week interval. Seven-day after the sensitization, the guinea pig was exposed to an antigen to initiate the reaction. Then the trachea was incised under the anesthesia with pentobarbital (30 mg/kg, i.p.) and cannulas were inserted into the trachea at the pulmonary and nasal cavity sides. The canal inserted at the pulmonary side was connected with an artificial respirator that provides 4 ml air 60 times/min. After arresting the spontaneous respiration of a guinea pig with Garamin (2 mg/kg, i.v.), air was supplied to the snout side with an artificial respirator at the frequency of 70 times/min, and the flow rate of 4 ml air/time, and the atmospheric pressure required for the aeration was measured by the use of a transducer fitted at the branch. The measurement was used as a parameter of the nasal cavity resistance. The exposure of an antigen was carried out by generating aerosol of 3% OVA solution for 3 min between the respirator and nasal cavity cannula. The test drug was injected intravenously 10 min before the antigen exposure. The nasal resistance between 0 to 30 min was measured continuously and the effect was expressed as inhibition rate to that obtained for vehicle using the AUC for 30 min (on the vertical axis, nasal cavity resistance (cm H2O), and on the horizontal axis, time (0-30 min)) as an indication.

PGD2 receptor [3] = biological target: T1, PGD2 receptor; assay: Binding to PGD2 receptor ([3H]PGD2, human platelet membrane fraction); conditions: read-out: Activity (binding-inhibitory activity, concentration required for 50% inhibition, IC50), 5 nM [3H]PGD2, 4° C., 90 min
Protocol: (1) Preparation of Human Platelet Membrane Fraction
Blood sample was obtained using a plastic syringe containing 3.8% sodium citrate from a venous of healthy volunteers (adult male and female), put into a plastic test tube and mixed gently by inversion. The sample was then centrifuged at 1800 rpm, 10 min at room temperature, and supernatant containing PRP (platelet rich plasma) was collected. The PRP was re-centrifuged at 2300 rpm, 22 min at room temperature to obtain platelets. The platelets were homogenized using a homogenizer (Ultra-Turrax) followed by centrifugation 3 times at 20,000 rpm, 10 min at 4° C. to obtain platelet membrane fraction. After protein determination, the membrane fraction was adjusted to 2 mg/ml and preserved in a refrigerator at […] until use.
(2) Binding to PGD2 Receptor
To a binding-reaction solution (50 mM Tris/HCl, pH 7.4, 5 mM MgCl2) (0.2 ml) were added human platelet membrane fraction (0.1 mg) and 5 nM [3H]PGD2 (115 Ci/mmol), and reacted at 4° C. for 90 min. After the reaction completed, the reaction mixture was filtered through the glass fiber filter paper, washed several times with cooled saline, and measured radioactivity retained on the filter paper. The specific binding was calculated by subtracting the non-specific binding (the binding in the presence of 10 μM PGD2) from the total binding. The binding-inhibitory activity of each compound was expressed as concentration required for 50% inhibition (IC50), which was determined by depicting a substitution curve by plotting the binding ratio (%) in the presence of each compound, where the binding ratio in the absence of a test compound is 100%.

IC50 (PGD2 receptor [1]) [nM]	IC50 (PGD2 receptor [3]) [nM]	SMILES	Inhibition Rate (%) of nasal cavity resistance (AUC 0-30 min vs vehicle) [2] [%]
370	–	CN(C)c1cccc2c(S(=O)(=O)N[C@@H]3[C@@H]4CC[C@@H](C4)[C@H]3C/C=C\CCCC(=O)O)cccc12	–
–	–	COc1cc2c(cc1S(=O)(=O)N[C@@H]1[C@@H]3CC[C@@H](C3)[C@H]1C/C=C\CCCC(=O)O)oc1ccccc12	80
–	–	O=C(O)CCC/C=C\C[C@@H]1[C@H]2CC[C@H](C2)[C@H]1NS(=O)(=O)c1ccc2cc(-c3ccccc3)[nH]c2c1	60
–	120	CC1(C)[C@H]2C[C@H](C/C=C\CCCC(=O)O)[C@@H](NC(=O)c3ccc(/C=C\c4ccccc4)cc3)[C@@H]1C2	–
2090	–	O=C(O)CCC/C=C\C[C@@H]1[C@H]2CC[C@H](C2)[C@H]1NS(=O)(=O)c1ccc(C#Cc2ccccc2)cc1	–
300	45	CN(C)c1ccc(N=Nc2ccc(S(=O)(=O)N[C@@H]3[C@@H]4CC[C@@H](C4)[C@H]3C/C=C\CCCC(=O)O)cc2)cc1	44
–	46	CC1(C)[C@H]2C[C@H](C/C=C\CCCC(=O)O)[C@@H](NC(=O)c3ccc(Oc4ccccc4)cc3)[C@@H]1C2	54
710	–	COc1ccc(Oc2ccc(C(=O)N[C@@H]3[C@@H](C/C=C\CCCC(=O)O)C[C@H]4C[C@@H]3C4(C)C)cc2)cc1	–
940	–	CC1(C)[C@H]2C[C@H](C/C=C\CCCC(=O)O)[C@@H](NC(=O)c3ccc(N=Nc4ccccc4)cc3)[C@@H]1C2	60
–	–	CC1(C)[C@H]2C[C@H](C/C=C\CCCC(=O)O)[C@@H](NC(=O)c3ccccc3)[C@@H]1C2	52
–	3	CC1(C)[C@H]2C[C@H](C/C=C\CCCC(=O)O)[C@@H](NC(=O)c3ccc(Sc4ccccc4)cc3)[C@@H]1C2	73
770	–	CC1(C)[C@H]2C[C@H](C/C=C\CCCC(=O)O)[C@@H](NC(=O)c3ccc(-c4ccccc4)cc3)[C@@H]1C2	–
–	8600	COC(=O)CCC/C=C\C[C@@H]1[C@H]2CC[C@H](C2)[C@H]1NS(=O)(=O)c1ccc(Cc2ccccc2)cc1	66
1520	–	CC1(C)[C@H]2C[C@H](C/C=C\CCCC(=O)O)[C@@H](NC(=O)c3ccc(C#Cc4ccccc4)cc3)[C@@H]1C2	–
–	–	CC1(C)[C@H]2C[C@H](C/C=C\CCCC(=O)O)[C@@H](NC(=O)c3ccsc3)[C@@H]1C2	77
–	560	COC(=O)CCC/C=C\C[C@@H]1[C@H]2CC[C@H](C2)[C@H]1NS(=O)(=O)c1ccc(C=C2SC(=O)NC2=O)cc1	50
12100	–	COC(=O)CCC/C=C\C[C@@H]1[C@H]2CC[C@H](C2)[C@H]1NS(=O)(=O)c1ccc(-c2ccc(OC)cc2)cc1	–
